# Binding of CDR-mutated scFvs to a peptide of the spike HR2 region

Antigen: PDVDLGDISGINAS, a 14-residue peptide of the SARS-CoV-2 spike HR2 region.

Ab-14 is the parent antibody, in scFv form: VH, then the linker GGGGSGGGGSGGGGS, then VL. The heavy chain is unchanged in all variants.
VH: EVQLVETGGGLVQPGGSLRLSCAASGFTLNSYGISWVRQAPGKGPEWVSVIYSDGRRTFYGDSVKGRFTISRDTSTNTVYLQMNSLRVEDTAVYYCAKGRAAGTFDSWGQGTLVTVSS
VL: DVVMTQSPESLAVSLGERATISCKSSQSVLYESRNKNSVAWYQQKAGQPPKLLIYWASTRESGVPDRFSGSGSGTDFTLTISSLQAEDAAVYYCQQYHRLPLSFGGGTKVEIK

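The starting antibody came from a phage panning campaign against this peptide. Designed CDR sequences, proposed from the first random library and measured here. Several design methods are mixed in this list. In AlphaSeq, yeast of one mating type display the scFv and yeast of the other type display the target. Binding brings cells together so that they mate, and sequencing counts the barcode pairs among the diploids. Each replicate has its own calibration line, from reference interactions of the BCL2 family. The assay was run in six technical replicates.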

Each variant is given by its three light chain CDRs, as the data file delimits them; those of the parent are KSSQSVLYESRNKNSVA, WASTRES, QQYHRLPLS.
Variants here have more than six changes.
Numbers give log10(Kd / nM), so 0 is 1 nM and 3 is 1 µM. Smaller is tighter.
The mean shown is taken over the replicates in which the pair was detected.
Where no diploid with the target was found in that replicate, the entry reads "nd": below detection, most likely a poor binder, though not proof of it.

Variant KISQMVKVGATHNNSIA / EEQTRAK / QQYHRLPLS showed 1.43, 1.62, 1.53, 0.98, 0.92, 1.19 (mean 1.28). For MLYGLSASMSKNVNNVA / EMTTREV / QQYDRLPLV, the assay gave 1.66, 1.57, 1.19, 1.27, nd, 1.66 (mean 1.47). Variant KFSQSALYEERMKNSVA / NASQRLS / QQYHRLPLS showed 0.53, -0.18, -0.05, -0.03, -0.13, -0.24 (mean -0.02). Variant KQSQSFLYESRNSNSVA / NASQREQ / QQYHRLPLM gave 0.01, 0.05, 0.32, -0.15, 0.06, 0.11 (mean 0.07). With KLSQQNPYESRMMNSVA / MASQRES / QQYHRLPLS the result was 1.05, 1.09, 0.99, 1.14, 1.36, 1.43 (mean 1.17). For KLGQMTAIESRNLNSVA / QMDTREE / QQYHRLPLS, the assay gave 1.54, 1.46, 1.13, 0.76, 1.61, 0.89 (mean 1.23). Variant QFDLFENYQGMQNASIA / GTTNRHT / QQYQKLPLS showed 0.76, 0.85, 0.79, 0.89, 0.82, 1.15 (mean 0.88). Variant KISQMVKVGSTHSNSIA / EEQTRAK / QQYHRLPLS showed 2.14, 1.02, 0.49, 0.74, 0.57, 0.64 (mean 0.93). With KLSMETYGLTGHTSSIA / HEEIRWA / QQYHKLPLI the result was 1.16, 1.31, 1.45, 1.44, 1.74, 1.46 (mean 1.43).

Variant KLQGSVGYESRNKNSVA / GASQRED / QQYHRLPLS showed -0.02, -0.24, -0.24, -0.41, -0.33, -0.16 (mean -0.24). For TLVQSVMTGSRTKNSVA / NAETRYD / QHYHRLPLS, the assay gave 0.32, 0.14, -0.07, 0.12, 0.17, 0.23 (mean 0.15). For MISQLYNMGSFAINSVA / QASQRCE / QQYDRLPLI, the assay gave 0.91, 1.17, 0.94, 1.04, 1.30, 1.07 (mean 1.07). Variant KISQAYLGEDRNKNSVA / NANTRES / QQYHRLPLS showed -0.13, -0.10, -0.35, -0.34, -0.14, 0.08 (mean -0.16). Variant IISQVDAYESRNKNSIA / DQSSRGS / QQYDRLPLS showed 1.49, 0.96, 0.71, 1.31, 0.92, 1.27 (mean 1.11). For TLMQVGGYESNNHNSIA / DLRTRES / QQYHRLPLS, the assay gave nd, 1.95, 0.53, 1.89, 0.10, 2.04 (mean 1.30). For KLSFGNLYESRNQNSVA / EASTRCQ / QQYHRLPLS, the assay gave 0.01, 0.02, 0.19, -0.16, -0.18, 0.18 (mean 0.01). Variant IVSQLMLWGLHAKNSIA / EAETRLN / QQYDRLPLF showed 0.95, 1.40, 1.94, 1.44, 1.51, 1.46 (mean 1.45). Variant KLTMISGLEKVSTNNVA / EMETREE / QQYNRLPLS showed 0.60, 0.11, 0.39, 0.68, 0.60, 0.82 (mean 0.54).

Variant KVVQSHDYEQRNKNSVA / HASTRCS / QDYHRLPLS gave 0.93, 0.39, 0.50, 0.36, 0.52, 0.59 (mean 0.55). Variant QITNQTAGIMNGIDSIA / EETNLTD / QQYGHLPLS showed nd, nd, nd, nd, 2.07, nd. Variant LLWQDFYNGRSQANAVA / EGNQLAD / QQYARLPLV gave 0.55, 0.89, 0.33, 0.33, 0.08, 0.61 (mean 0.47). For KLMPSWEYESRNKNSVA / EASVREE / QQYHRLPLS, the assay gave 1.64, 1.30, 1.29, 1.54, 1.23, 1.15 (mean 1.36). For TISGMMNNMSTKHNSVA / NVTMRPD / QQYHRLPLS, the assay gave 1.00, 2.17, nd, 1.33, 3.45, 1.43 (mean 1.88). Variant SIYDATAMESRNKNPIA / DVSTRPS / QQYDRLPLS gave 0.87, 0.64, 0.43, 0.69, 1.10, 0.68 (mean 0.74). For QVFFQLFEQQNRSNPIA / HESMRET / QQYAYLPLT, the assay gave nd, nd, nd, nd, nd, nd. With KLSQSEPYEDRNKNSVA / NASYRCS / QQYHRLPLH the result was 1.15, 0.73, 0.59, 0.75, 0.12, 0.58 (mean 0.66). With ALSQLMDMTSRNKNSVA / DLSTREN / QQYHRLPLS the result was 0.58, 0.41, 0.21, 0.42, 0.09, 0.72 (mean 0.40).

Variant KLQMSEGYEQRNKNSVA / EASTRCD / QQYHRLPLS gave 1.06, 0.29, 0.52, 0.65, 0.58, 0.47 (mean 0.60). Variant MVSQLMWWGMHAKNSIA / EAQMRLN / QQYDRLPLF showed 1.36, 1.03, 2.85, 1.88, 1.50, 1.93 (mean 1.76). Variant KVSPSVQYEARQFNSVA / EASTREQ / QQYHRLPLS showed 1.07, 0.70, 0.55, 0.68, 0.82, 0.87 (mean 0.78). Variant KASQSVGYGERMSNSVA / EASTRES / QQYHRLPLS showed 0.41, 0.33, 0.15, -0.01, 0.39, 0.37 (mean 0.27). With KLYQSNKYESRMKNSVA / NASQREQ / QQYHRLPLS the result was 0.51, 0.54, 0.37, 0.48, 0.42, 0.60 (mean 0.48). Variant HISQMWFLESKNKNNVA / EESTRED / QSYFRLPLS showed 0.91, 0.82, 1.03, 0.52, 0.35, 0.94 (mean 0.76). For MISQLYNMGQFAINSVA / QASIRNA / QQYDRLPLA, the assay gave nd, nd, nd, nd, 1.97, 2.49 (mean 2.23). Variant KLSISHQVESIHKSNVA / EMVTRES / QQYDRLPLS gave 0.57, 0.37, 0.76, 0.72, 0.65, 0.83 (mean 0.65). Variant KFEQQDLYSSRNVNSVA / NASTRSQ / QQYHRLPLS gave 0.07, -0.31, -0.24, -0.39, -0.34, -0.08 (mean -0.22).

With KLLQNVMTEGKNRNNVA / HMTMRED / QQYWRLPLS the result was nd, nd, nd, nd, nd, nd. Variant TLVQSVMGGSRTKNSIA / NAETRYD / QHYHRLPLS gave 0.67, 0.70, 0.62, 0.66, 0.73, 0.76 (mean 0.69). For MLSEVLHMLGAKKNSIA / DLVMRAN / QQYHRLPLF, the assay gave 1.72, 0.78, 1.49, 0.67, 0.31, 1.06 (mean 1.01). Variant SIYDATGMESRNKNPIA / DVSTRPQ / QQYHRLPLS showed 0.31, -0.06, 0.03, -0.15, 0.04, 0.07 (mean 0.04). Variant SMQVYTENFMERGQNIA / DVSATTV / QQYHRLPLA gave 0.91, 1.39, 0.49, 0.89, 0.79, 1.20 (mean 0.94). For KLSYSVMLESRNKNAVA / SASTRMS / QDYHRLPLS, the assay gave 0.16, 0.37, 0.14, 0.24, 0.27, 0.26 (mean 0.24). With TISGVMQTVSHSKNNVA / EMNTRLE / QQYVRLPLA the result was 0.23, 0.11, 0.34, 0.67, -0.04, 0.03 (mean 0.22). For KLSMLMDLTQKHYNSVA / HVTTRSE / QQYNRLPFS, the assay gave 1.48, 1.07, 1.05, 1.00, 1.30, 1.01 (mean 1.15). Variant HMSMLTMMGMRQRNSVA / QMTMREN / QQYDRLPLV gave nd, nd, nd, nd, nd, nd.

Picked from the list: the 3 lowest averages where every replicate gave a value.

| CDR-L1 | CDR-L2 | CDR-L3 | log10 Kd, replicates | mean log10 Kd (nM) |
|---|---|---|---|---|
| KLQGSVGYESRNKNSVA | GASQRED | QQYHRLPLS | -0.02, -0.24, -0.24, -0.41, -0.33, -0.16 | -0.24 |
| KFEQQDLYSSRNVNSVA | NASTRSQ | QQYHRLPLS | 0.07, -0.31, -0.24, -0.39, -0.34, -0.08 | -0.22 |
| KISQAYLGEDRNKNSVA | NANTRES | QQYHRLPLS | -0.13, -0.10, -0.35, -0.34, -0.14, 0.08 | -0.16 |

The authors' rule: three or more of the six replicates give a measured affinity, fewer mean a poor binder.
A sequence measured in both rounds can read differently, since the two assays cover different ranges.
Background: pairings of all light chain designs with three empty control strains gave a value in 4% of cases (median 2.64, 5th percentile 1.59). Values in that range, when seen in few replicates, are hard to tell from nonspecific mating.

Reference: Li et al. 2023, doi:10.1038/s41467-023-39022-2. File: FLAb, binding data.